ChEMBL document CHEMBL3763047, “Flavonoid derivatives as selective ABCC1 modulators: Synthesis and functional characterization” (Eur J Med Chem, 2016)
pIC50: −log10 of the molar value.

By UniProt entry, the sequences of proteins in these tests, tags left out. Where a name states a change or a piece, a line headed by the entry shows the natural chain unless it says otherwise.
UniProt Q9UNQ0: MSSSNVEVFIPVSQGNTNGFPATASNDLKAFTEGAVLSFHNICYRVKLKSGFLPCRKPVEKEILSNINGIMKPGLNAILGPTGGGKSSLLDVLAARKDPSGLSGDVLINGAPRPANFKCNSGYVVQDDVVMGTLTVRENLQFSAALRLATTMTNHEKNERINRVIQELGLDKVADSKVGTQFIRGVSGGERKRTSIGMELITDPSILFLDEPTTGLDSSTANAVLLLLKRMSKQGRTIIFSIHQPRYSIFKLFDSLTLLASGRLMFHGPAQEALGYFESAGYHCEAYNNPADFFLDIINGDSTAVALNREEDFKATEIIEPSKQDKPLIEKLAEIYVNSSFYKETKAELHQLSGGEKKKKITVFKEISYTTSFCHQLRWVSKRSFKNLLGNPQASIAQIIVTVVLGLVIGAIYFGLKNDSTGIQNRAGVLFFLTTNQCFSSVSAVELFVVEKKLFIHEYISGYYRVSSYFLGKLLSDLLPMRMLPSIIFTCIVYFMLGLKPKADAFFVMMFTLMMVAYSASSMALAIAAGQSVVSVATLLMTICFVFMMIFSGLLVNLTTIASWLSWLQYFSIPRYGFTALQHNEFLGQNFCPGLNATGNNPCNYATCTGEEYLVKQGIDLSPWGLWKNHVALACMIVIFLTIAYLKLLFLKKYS

Biological target: Broad substrate specificity ATP-binding cassette transporter ABCG2 (Homo sapiens, UniProt Q9UNQ0)
Test: Inhibition of ABCG2 in human MCF7/Topo cells by Hoechst 33342 assay
Type: cell-based

pIC50: 5.74
Compound: COc1ccc(CCNC(=O)c2cc(=O)c3c(OCc4ccccc4)cccc3o2)cc1OC
